Values quoted from earlier work as cited in patent US6156316A, “Oncogene fusion protein peptide vaccines” (Sloan-Kettering Institute for Cancer Research, priority 1995, dated 2000).

Conditions: at the dose level proposed; cited from earlier work

For QS-21, the safety / toxicity is listed as “safe and relatively nontoxic”.
